The test system of the experiment is MOLT-4 leukemia. Description: growth of human tumour cells (NCI), 48 h.

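Each compound was tested at five concentrations against cells in 96-well plates for 48 hours. The concentration for full growth arrest is given as TGI.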

Molecule `O=[N+]([O-])C1([N+](=O)[O-])CCCc2nonc21` displayed a TGI of 88.4 µM.

The values are drawn from PubChem BioAssay (NCI).
